## Apparent affinities of Ab-14 variants for a coronavirus HR2 peptide

Data: MIT Lincoln Laboratory AlphaSeq set, Engelhart et al. 2022, doi:10.1038/s41597-022-01779-4, as distributed in FLAb.

Target peptide (SARS-CoV-2 spike, HR2 region): PDVDLGDISGINAS

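The starting antibody came from a phage panning campaign against this peptide. Library AAYL50 holds single substitutions and randomly drawn double and triple substitutions in the CDRs. AlphaSeq pools MATa yeast showing the antibodies with MATalpha yeast showing the peptide. The frequency of each diploid, read from paired DNA barcodes, reflects how well the two displayed proteins bind. A regression on co-assayed BCL2-family reference pairs converts the normalised counts of each replicate to an apparent Kd. Mating was done three times.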

Ab-14 is the parent antibody, in scFv form: VH, then a 15-residue (Gly4Ser)3 linker, then VL. The heavy chain is unchanged in all variants.
VH: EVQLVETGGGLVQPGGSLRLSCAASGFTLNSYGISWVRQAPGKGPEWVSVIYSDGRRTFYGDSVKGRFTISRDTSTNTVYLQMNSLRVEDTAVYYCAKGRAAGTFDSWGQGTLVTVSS
VL: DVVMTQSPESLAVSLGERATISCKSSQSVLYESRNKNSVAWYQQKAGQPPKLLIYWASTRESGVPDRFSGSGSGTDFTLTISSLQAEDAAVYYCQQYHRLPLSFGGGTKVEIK

The parent's light chain CDRs are KSSQSVLYESRNKNSVA, WASTRES, QQYHRLPLS; each variant's own CDRs replace them letter for letter.
Every variant below is changed at N37 of the VL (sequential numbering).
The Kd shown is the geometric mean over detected replicates; a lower Kd is a better binder.
"nd" marks a missing value. The strain was present, yet no cells mated with the target were sequenced in any replicate, which points to weak or no binding.
Background: pairings of library AAYL50 with three empty control strains gave a value in 18% of cases (median 15 µM, 5th percentile 970 nM). Values in that range, when seen in few replicates, are hard to tell from nonspecific mating.
For reference, the parent read 4.4 nM as the reference entry and 48 nM as a member of this library.

The variant KISQSVLYESRNKPSVA / WASTRES / MQYHRLPLS showed 13 µM (1 of 3 replicates). With KSSQSVLYESLNKSSVA / WASTRES / QQYHRLPLS the result was 39 nM (2 of 3 replicates). For KSSQSVLYESRNKTSVA / WASTRES / QQRHRLPLW, the assay gave 3.3 µM (3 of 3 replicates). The variant KSSQSVLYESRNKQSVL / WASTRES / QQYHRLPLS gave 230 µM (2 of 3 replicates). With KSSQSVLYEPRNKPSVA / WASTRES / QQYHRLPLW the result was nd (0 of 3 replicates).

The variant KSCQSVLYESRNKDSVA / WASTRTS / QQYHRLPLS showed nd (0 of 3 replicates). The variant KSKQSVLYESRNKASVA / WARTRES / QQYHRLPLS showed 7.0 µM (3 of 3 replicates). For KSSQSVLEESRNKSSVA / WAWTRES / QQYHRLPLS, the assay gave 23 nM (3 of 3 replicates). The variant KSSQSVLYEYRHKVSVA / WASTRES / QQYHRLPLS gave nd (0 of 3 replicates). For KSSQSVLYESRNKMSVA / FASTRES / QQYHRLCLS, the assay gave nd (0 of 3 replicates).

For KSSQSVLYEARNKLSVA / WASDRES / QQYHRLPLS, the assay gave 7.4 µM (3 of 3 replicates). With KSSQSVLYESRNKTFVA / WASTRES / QQYSRLPLS the result was 21 µM (2 of 3 replicates). The variant VSSQSVLYENRNKTSVA / WASTRES / QQYHRLPLS gave 290 nM (3 of 3 replicates). The variant KMSQSVLYESRNKKSHA / WASTRES / QQYHRLPLS gave 13 µM (2 of 3 replicates). For KSSQNVLYCSRNKISVA / WASTRES / QQYHRLPLS, the assay gave 240 nM (1 of 3 replicates).

For KSSQSVLYESRNKHSVA / WASHRES / QQYHRLPLS, the assay gave nd (0 of 3 replicates). For KSSQSVLYESRNKSRVA / WASTPES / QQYHRLPLS, the assay gave nd (0 of 3 replicates). The variant KSSQSVLYSSRSKFSVA / WASTRES / QQYHRLPLS showed nd (0 of 3 replicates). The variant WSSQSVLYGSRNKYSVA / WASTRES / QQYHRLPLS gave nd (0 of 3 replicates). For KSSQSVLYESRNKQSVA / WASTRES / QYYHRLPLF, the assay gave 4.3 µM (1 of 3 replicates).

With KSSQSVLYESRNKPSVA / WASTRES / QQDHFLPLS the result was nd (0 of 3 replicates). The variant KFSQSVLYESRNKASVA / WASTRES / QQYHRLPSS showed 13 nM (3 of 3 replicates). For KSSQSVLYESRNKLSVA / WASTRES / QQYHRLPLC, the assay gave 130 nM (3 of 3 replicates). For KSSQSVLYESRNKQSAA / WACTRES / QQYHRLPLS, the assay gave nd (0 of 3 replicates). The variant KSSQSELYESRNKYSVY / WASTRES / QQYHRLPLS gave 59 µM (2 of 3 replicates).

The variant KSYQSVLYESRNKYSVA / WAFTRES / QQYHRLPLS showed 150 nM (3 of 3 replicates). The variant KSSQSVLYESGNKVSVH / WASTRES / QQYHRLPLS showed nd (0 of 3 replicates). The variant KSSQSVLIESRNKSSVA / WASTRES / QQYHDLPLS gave 6.9 nM (3 of 3 replicates). With KSSQSVLYESRDKESVA / WASTRES / QQYHGLPLS the result was 32 µM (1 of 3 replicates). For KSSQSVLYESRNKASVA / WYSTPES / QQYHRLPLS, the assay gave nd (0 of 3 replicates).

With KSSQSVLYESRNKESVA / WAHTRES / QQYARLPLS the result was nd (0 of 3 replicates). The variant KSSQSVLYESRNKCSVE / WASTRES / QQYHRLPLI gave nd (0 of 3 replicates). For KSSASVLYESRNKGSVA / WASTRES / QQYHLLPLS, the assay gave 12 nM (3 of 3 replicates). The variant KSSQSVLYESRNFRSVA / WASTKES / QQYHRLPLS gave 17 nM (3 of 3 replicates). The variant KSSQSVLYESRNKDSVA / WASTRES / QQYHVLPLR gave 92 nM (1 of 3 replicates).

For KSSQSVLSESRNKASVA / WASHRES / QQYHRLPLS, the assay gave 7.9 nM (3 of 3 replicates). For KSSQSVLYESRNKTSSA / WQSTRES / QQYHRLPLS, the assay gave 27 µM (3 of 3 replicates). The variant KSSQSVLYESRNKGSTA / WASTRES / QQYHRLPSS gave 110 µM (2 of 3 replicates). With KSSQSVLYESRNKWSVA / WASTREL / QQWHRLPLS the result was nd (0 of 3 replicates). The variant KASQSVLYETRNKHSVA / WASTRES / QQYHRLPLS gave 7.8 nM (3 of 3 replicates).

With KYSQSVLYESRGKLSVA / WASTRES / QQYHRLPLS the result was 140 nM (3 of 3 replicates). The variant KSSQSVLYESRKKCSVA / WASTRES / QQYHRDPLS gave 690 nM (1 of 3 replicates). The variant KSSQSVVYESRGKVSVA / WASTRES / QQYHRLPLS gave 280 nM (3 of 3 replicates). The variant KSSQSVLYESRNKCSVA / WASFRES / KQYHRLPLS showed nd (0 of 3 replicates). The variant KSSDSVLYESLNKLSVA / WASTRES / QQYHRLPLS gave 1.2 µM (3 of 3 replicates).

For KRSQSVLYESCNKSSVA / WASTRES / QQYHRLPLS, the assay gave 63 nM (3 of 3 replicates). The variant KSSQSVLYESRNKESVA / WAETRES / QQYHRLPLS gave 47 nM (3 of 3 replicates). The variant KSGQSVLYESRNKGSVA / WASTRES / TQYHRLPLS showed nd (0 of 3 replicates). With KSSQSVLMESRNKGSVA / WASTRES / QQYHPLPLS the result was 25 µM (3 of 3 replicates). The variant KSSQSVLYESRNKPSVA / KASTEES / QQYHRLPLS showed 17 µM (1 of 3 replicates).